Laboratory results from US11021454B2, “Type of aryl benzofuran amidated derivative and medical use thereof” (CHINA PHARMACEUTICAL UNIVERSITY, priority 2016, dated 2021).

Key:
[1] = test system: LPS-stimulated macrophage RAW 264.7; assay: Scavenging of superoxide anion in LPS-stimulated macrophage RAW 264.7 (2-OH-E+ by LC-MS); type: cell-based; conditions: LPS-stimulated RAW 264.7
Procedure: The antioxidant activity (the ability to scavenge superoxide anion) of the synthesized benzofuran amidated derivative is evaluated by a cell model.
After phagocytosis of bacteria, senescent denatured cells, immune complexes or oxidized low-density lipoproteins, mammalian macrophages cells enter a functional activation state, with enhanced intracellular lysosomal function and increased ROS levels, and they secrete and synthesize inflammatory cytokines. Lipopolysaccharide (LPS) is the main component of the cell wall of Gram-negative bacteria and is the main material basis for its pathogenesis; it can stimulate the production of monocytes/macrophages and release a large amount of reactive oxygen species (mainly including O2^− and H2O2), inflammatory factors such as nitric oxide (NO), IL-1β and Tumor necrosis factor-α (TNF-α) that are involved in the acute phase response of the body, causing inflammatory damage to the body. The present invention utilizes the LPS-stimulated macrophage model to evaluate the antioxidant activity of benzofuran amidated derivatives to scavenge superoxide anion at the cellular level.
13.1 Preparation of Reagents and Standard Solutions
(2) LPS: accurately weigh the appropriate amount of LPS, and prepare a sample stock solution of 0.1 g/ml, with DMEM and store at −20° C. for later use.
(3) Probe Stabilizer DTPA: Weigh accurately the amount of DTPA, prepare a 20 mM sample stock solution with DMSO, dilute to 100 µM with PB, and store at 4° C. for use.
(4) HE: Prepare a 20 mmol/L stock solution by dissolving the probe with dimethyl sulfoxide under anaerobic and dark conditions, and store at −80° C. in the dark. Take it out before use, prepare a 10 μmol/L solution with DMEM, place it on ice and store it in the dark.
LPS stimulated macrophage RAW 264.7 modeling and administration:
(1) RAW 264.7 cells are cultured in Petri dishes (60 mm), 4 mL per dish, and incubated in a 5% CO2 incubator with saturated humidity at 37° C. The experiment is divided into blank group, model group and drug-administered group. The model group and the drug-administered group are respectively added with the modeling agent LPS (prepared with DMEM) and the optimal LPS concentration is 0.1 μg/mL, while the modeling time is 24 h; take vitamin E as a positive control.
(2) After 12 h of cell culture, the supernatant is discarded, and the test drug with a final concentration of 10 μM containing 0.1 μg/mL LPS medium is added, and two parallel holes are provided for each sample to be tested.
(3) Continue to culture in a cell culture incubator for 24 h, the supernatant is discarded, the cells are washed with PBS, and added to DMEM medium containing the probe HE (10 μM) and cultured in the dark for 30 min.
(4) The cells are then washed twice with ice-cold PBS/(100 μM) DTPA, then added 1 mL PBS/(100 μM) DTPA, before the cells are divided into two with a spatula (700 μL and 300 μL) and collected into EP tubes; then they are centrifuged at 13,000 rpm for 10 min at 4° C., the supernatant is removed, and the cell pellet are stored at −80° C. for future use. The first one contains 700 μL cell solution for the determination of LC-MS content of the test substance 2-OH-E^+, while the second one contains 300 μL cell solution for the determination of cell protein concentration.
13.3 LC-MS Analysis Conditions, Sample Pretreatment and Data Processing Methods
(1) LC-MS chromatographic conditions: instrument: Agilent 1100 series LC-QMS; column: Agilent Zorbax SB-Aq (4.6×50 mm, 1.8 μm); mobile phase: 0.1% formic acid-water (phase A); 0.1% formic acid-acetonitrile (B); gradient conditions: 0˜2 min, 5%˜30% B; 2˜5 min, 30% B; 5˜7 min, 30%˜100% B; 7˜10 min, 100% B; flow rate: 1 mL/min; MS condition: positive ion mode, SIM (SIM1: 1.2˜3 min [M+H]^+288 (galantamine); 3˜10 min [M]^+330 (2-OH-E^+)); cracking voltage: 120 V; nitrogen flow rate: 10.0 L/min; […]

Normal hepatocyte LO2 = assay: Inhibition of uric acid production in xanthine-modelled hepatocyte cell model; type: cell-based; conditions: Homo sapiens, L02, LO2 cells, 10 μM xanthine, 24 h, read-out: Inhibition rate (%) of uric acid
Procedure: The effect of benzofuran amidated derivatives on uric acid production is evaluated using a cell model.
(2) Experimental procedure: Normal hepatocyte LO2 are inoculated in a 6-well plate (plate density 1×10^6 cells/mL), and cell experiments are performed after 4 hours of plating. The experiment is divided into blank group, model group and drug-administered group; the model group and the drug-administered group are respectively added with the modeling agent xanthine (prepared with DMSO as a stock solution), while the blank group is added with the same volume of DMSO, and the Febuxostat is used as a positive control.
(3) Pre-treatment of mass spectrometry: take 100 μL of the medium collected, add MeOH 400 μL, CHCl3 100 μL and H2O 300 μL, perform vortex mixing, and centrifuging at 20000 g for 10 min, then take the upper layer for concentration and dry. Reconstitute H2O 100 μL, and add 10 μL of internal standard substance galantamine (1.25 μM) (final concentration 0.125 μM), centrifuge at 13,000 rpm for 10 min, and take the upper layer for LC-MS analysis.

Row | Compound | superoxide anion scavenging activity compared with Ve [1] | inhibition at 10 µM (Normal hepatocyte LO2) [%] | inhibition at 30 µM (Normal hepatocyte LO2) [%] | inhibition at 50 µM (Normal hepatocyte LO2) [%]
1 | O=C(/C=C/c1ccc(O)c2oc(-c3ccc(O)c(O)c3)cc12)N[C@@H](Cc1ccccc1)C(=O)O [Compound 6d, (E)-(3-(2-(3,4-dihydroxyphenyl)-7-hydroxybenzofuran-4-yl)acryloyl)-L-phenylalanine] | better superoxide anion scavenging activity than Ve | – | – | –
2 | O=C(/C=C/c1ccc(O)c2oc(-c3ccc(O)c(O)c3)cc12)N[C@@H](Cc1ccc(O)cc1)C(=O)O [Compound 6e, (E)-(3-(2-(3,4-dihydroxyphenyl)-7-hydroxybenzofuran-4-yl)acryloyl)-L-tyrosine] | better superoxide anion scavenging activity than Ve | 31.5 | 41.6 | 57.2
3 | COC(=O)[C@@H](Cc1ccc(O)c(O)c1)NC(=O)/C=C/c1ccc(O)c2oc(-c3ccc(O)c(O)c3)cc12 [Compound 5b] | better superoxide anion scavenging activity than Ve | 28.6 | 46.1 | 62.6
4 | O=C(/C=C/c1ccc(O)c2oc(-c3ccc(O)c(O)c3)cc12)N[C@H](Cc1ccc(O)c(O)c1)C(=O)O [Compound 6b, (R,E)-3-(3,4-dihydroxyphenyl)-2-(3-(2-(3,4-dihydroxyphenyl)-7-hydroxybenzofuran-4-yl)acrylamido) propanoic Acid] | better superoxide anion scavenging activity than Ve | – | – | –
5 | COC(=O)[C@H](C)NC(=O)/C=C/c1ccc(O)c2oc(-c3ccc(O)c(O)c3)cc12 [Compound 5c, Methyl (E)-(3-(2-(3,4-dihydroxyphenyl)-7-hydroxybenzofuran-4-yl)acryloyl)-L-alaninate] | better superoxide anion scavenging activity than Ve | – | – | –
6 | COC(=O)[C@H](Cc1ccc(O)c(O)c1)NC(=O)/C=C/c1ccc(O)c2oc(-c3ccc(O)c(O)c3)cc12 [Compound 5a, Methyl (S,E)-3-(3,4-dihydroxyphenyl)-2-(3-(2-(3,4-dihydroxyphenyl)-7-hydroxybenzofuran-4-yl)acrylamido)propanoate] | better superoxide anion scavenging activity than Ve | – | – | –
